Data on 67 compounds can be found in PubChem BioAssay AID2805 (Sanford-Burnham Center for Chemical Genomics, 2010).

The entries are a selection whose mix differs from that of the whole data set. The source made the active and inactive calls.

The test system of this experiment is intestinal alkaline phosphatase [Mus musculus]. In words: activators of mouse IAP, primary screen, biochemical, luminescence, uHTS (AID 2805). Particulars: muIAP, CDP-Star luminescence, 30 min; at 10 µM; hits give high values; 1 = vehicle-only enzyme signal, 0 = enzyme-free wells. The method in brief:
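System: mouse IAP enzyme. Reagent: CDP-Star chemiluminescent phosphatase substrate. Benchmarks: DMSO wells, no-enzyme wells. Times: 30 min enzyme-substrate-compound incubation at room temperature. Detection: luminescence from enzymatic CDP-Star hydrolysis. Doses: test compounds delivered from DMSO solution.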
As to `CCOc1ncccc1C(=O)NCC1(N2CCOCC2)CCCCC1`, the activation factor was inactive: 1.03.
Take `CN1CCC(Nc2ccc(F)c(Cl)c2)CC1`: the activation factor was inactive: 1.05.
Take `CCCOc1ccc(C(=O)NCC2(N(C)C)CCCCC2)cc1`: the activation factor is inactive: 1.07.
In the case of `CC(C)(C)OC(=O)N1CCC(Nc2ccccc2)CC1`, the activation factor was inactive: 1.01.
Under `O=C(O)C1(Nc2ccccc2)CCN(Cc2ccccc2)CC1` stands inactive: 0.91.
For the compound `CCC(CO)(C(=O)OC1CN2CCC1CC2)c1ccccc1` (configuration not stated), the activation factor is inactive: 1.04.
Regarding `COc1cccc(C(=O)N(c2cc(C)cc(C)c2)C2CCN(C(=O)OC(C)(C)C)CC2)c1`, the activation factor is inactive: 0.987.
Take `COc1cc(OC)cc(C(=O)NCC2(N3CCOCC3)CCCCC2)c1`: the activation factor was inactive: 0.941.
The value for `CCCOc1ccc(C)cc1CN(CCCl)CCCl` was inactive: 0.97; that for `CN1CCC(Nc2ccc(Cl)cc2)CC1` was inactive: 1.05; that for `COc1cc(OC)cc(C(=O)NCC2(N3CCCCC3)CCCCC2)c1` was inactive: 1.08.
Consider `Cc1ccc(C(=O)NCC2(N3CCCCC3)CCCCC2)o1`, for which the activation factor is inactive: 0.917.
Under `Fc1ccccc1NC1CCN(Cc2ccccc2)CC1` stands inactive: 1.03; under `CCN1CCC(Nc2cccc(F)c2)CC1`, inactive: 0.875; under `O=C(NCC1(N2CCCCC2)CCCCC1)c1ccco1`, inactive: 1.04.
Under `CN(C)c1ccc(C(=O)NCC2(N3CCCCC3)CCCCC2)cc1` stands inactive: 1.
With `CC(C)(C)OC(=O)N1CCC(N(C(=O)c2ccccc2)c2ccc(Cl)cc2)CC1`, the activation factor was inactive: 1.02.
Take `N#Cc1ccc(C(=O)NCC2(N3CCCCC3)CCCCC2)cc1`: the activation factor is inactive: 0.992.
The value for `c1ccc(CN2CCC(Nc3ccccc3)CC2)cc1` was inactive: 0.942.
Under `CCCN1CCC(Nc2cc(OC)cc(OC)c2)CC1` stands inactive: 0.966; under `CN(C)C1(CNC(=O)c2cccc(C#N)c2)CCCCC1`, inactive: 1.03; under `O=C(NCC1(N2CCOCC2)CCCCC1)c1cc(Br)ccc1Cl`, inactive: 1.1.
`COc1cc(C(=O)NCC2(N3CCOCC3)CCCCC2)cc(OC)c1C`: the activation factor was inactive: 1.11.
The value for `COc1ccc(C(=O)NCC2(N3CCOCC3)CCCCC2)cc1OC` was inactive: 1.1; that for `N/C(=N\O)c1c(N)no[n+]1[O-]` was inactive: 1.05; that for `CCOC(=O)N1CCC(Nc2ccc(C)cc2)CC1` was inactive: 0.983.
Under `CCc1cc(C(=O)NCC2(N3CCCCC3)CCCCC2)sc1C` stands inactive: 0.997; under `O=C(OC1CN2CCC1CC2)C1c2ccccc2C=Cc2ccccc21` (configuration not stated), inactive: 0.983.
With `COc1ccc(CN(CCCl)CCCl)cc1Cl`, the activation factor was inactive: 0.961.
The value for `CN(C)c1cccc(C(=O)NCC2(N3CCCCC3)CCCCC2)c1` was inactive: 1.1.
Under `CC(C)c1ccc(NC2CCN(C(=O)OC(C)(C)C)CC2)cc1` stands inactive: 0.996; under `COc1cc(OC)c(C(=O)NCC2(N(C)C)CCCCC2)cc1OC`, inactive: 1.01; under `O=C(NCC1(N2CCOCC2)CCCCC1)c1cc(F)c(F)cc1Cl`, inactive: 0.993.
For the compound `CN1CCC(Nc2cccc(F)c2)CC1`, the activation factor is inactive: 1.
Under `O=C(NCC1(N2CCCCC2)CCCCC1)c1cncc(Br)c1` stands inactive: 0.936; under `O=C(NCC1(N2CCCCC2)CCCCC1)c1ccc(OC(F)F)cc1`, inactive: 0.975.
`CSc1ccc(C(=O)NCC2(N3CCOCC3)CCCCC2)cc1`: the activation factor was inactive: 1.07.
The value for `O=C(NCC1(N2CCCCC2)CCCCC1)c1cccc([N+](=O)[O-])c1` was inactive: 0.978; that for `CCN1CCC(Nc2ccc(Cl)cc2)CC1` was inactive: 0.989; that for `N#CC1(Nc2ccccc2)CCN(CCc2ccccc2)CC1` was inactive: 0.963.
The value for `O=C(NCC1(N2CCCCC2)CCCCC1)c1cccc(C(F)(F)F)c1` was inactive: 1.03.
For the compound `CC(C)c1ccc(C(=O)NCC2(N3CCOCC3)CCCCC2)cc1`, the activation factor was inactive: 1.02.
The value for `COc1ccc(NC2CCN(C(=O)OC(C)(C)C)CC2)cc1` was inactive: 0.954; that for `CN1CCN(CCOC(=O)C(O)(c2ccccc2)c2ccccc2)CC1` was inactive: 1.08.
Under `O=C(NCC1(N2CCOCC2)CCCCC1)c1cc(=O)[nH]c2ccccc12` stands inactive: 1.08; under `COc1cc(C(=O)NCC2(N3CCCCC3)CCCCC2)ccc1OC(F)F`, inactive: 1; under `CCOc1ccc(C)cc1CN(CCCl)CCCl`, inactive: 1.1.
The value for `CCCCOc1ccc(C(=O)NCC2(N3CCOCC3)CCCCC2)cc1` was inactive: 1.04; that for `O=C(NCC1(N2CCCCC2)CCCCC1)c1ccc(F)cc1` was inactive: 1.01; that for `CCOC(=O)N1CCC(Nc2ccc(F)cc2)CC1` was inactive: 1.04.
As for `COc1ccc(NC2CCN(CCc3ccccc3)CC2)c(OC)c1`, the activation factor is inactive: 1.05.
With `CCOC(=O)N1CCC(Nc2cccc(C)c2)CC1`, the activation factor is inactive: 1.1.
Under `Cc1ccc(OCC(C)C)c(CN(CCCl)CCCl)c1` stands inactive: 0.992; under `O=C(NCC1(N2CCCCC2)CCCCC1)c1ccc(=O)[nH]c1`, inactive: 0.954; under `O=C(NCC1(N2CCCCC2)CCCCC1)c1cccs1`, inactive: 0.891.
Under `COc1ccc(C(=O)NCC2(N3CCCCC3)CCCCC2)cc1` stands inactive: 0.978.
Under `CC(C)(C)OC(=O)N1CCC(N(C(=O)c2ccccc2)c2ccc(F)cc2)CC1` stands inactive: 1.03.
Consider `COc1ccc(C(=O)NCC2(N3CCCCC3)CCCCC2)c(OC)c1OC`, for which the activation factor was inactive: 1.09.
Consider `CSc1ccccc1C(=O)NCC1(N2CCCCC2)CCCCC1`, for which the activation factor was inactive: 1.01.
`O=C(NCC1(N2CCOCC2)CCCCC1)c1cc2ccccc2o1`: the activation factor is inactive: 0.923.
Under `O=C(NCC1(N2CCCCC2)CCCCC1)c1ccc(Cl)nc1` stands inactive: 1.12; under `Cc1cc(C)cc(N(C(=O)c2ccccc2)C2CCN(C(=O)OC(C)(C)C)CC2)c1`, inactive: 1.05; under `CCOC(=O)N1CCC(Nc2ccc(OC)cc2)CC1`, inactive: 1.12.
Under `N#CC1(Nc2ccccc2)CCN(Cc2ccccc2)CC1` stands inactive: 1.02; under `O=C(NCC1(N2CCCCC2)CCCCC1)c1ccc(Cl)s1`, inactive: 1.01; under `O=C(OC1CN2CCC1CC2)C1c2ccccc2Oc2ccccc21` (configuration not stated), inactive: 0.923.
Under `COc1ccc(Cl)cc1C(=O)NCC1(N2CCOCC2)CCCCC1` stands inactive: 0.954.
